Here are results for 3 compounds from ChEMBL document CHEMBL3272314, “Sturcture-activity relationship of daunorubicin and its peptide derivatives” (J Med Chem, 1976).

Test [1] relates to Salmonidae. As to the kind of experiment: Binding affinity to salmon sperm DNA assessed as first order dissociation rate at pH 6.2 by stop-flow technique in presence of 5 mM Na+ ionic strength. Summed up: (§1)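 Salmon sperm DNA–drug complex preformed without SDS at 6 μM drug and 0.36 mM DNA P/l. Dissociation was started by mixing with 0.2% SDS and followed at 480 nm by stop-flow at 15°C. Buffers were 10 mM MES at pH 6.2 and 1 mM PIPES at pH 7.8, with Na+ set by NaCl. First-order k (sec⁻¹) was taken from rate plots over ≥2.5 half-lives.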

In test [2] the test system is Salmonidae. Put plainly: Binding affinity to salmon sperm DNA assessed as first order dissociation rate at pH 6.2 by stop-flow technique in presence of 21 mM Na+ ionic strength. The method, boiled down:
as §1

For test [3], the system named is Salmonidae. Put plainly: Binding affinity to salmon sperm DNA assessed as first order dissociation rate at pH 7.8 by stop-flow technique in presence of 1 mM Na+ ionic strength. The method, boiled down: as §1
In test [4] the test system is Salmonidae. As to the kind of experiment: Binding affinity to salmon sperm DNA assessed as first order dissociation rate at pH 7.8 by stop-flow technique in presence of 21 mM Na+ ionic strength. The method, boiled down: as §1
The test system of test [5] is Salmonidae. Put plainly: Binding affinity to salmon sperm DNA assessed as first order dissociation rate at pH 7.8 by stop-flow technique in presence of 201 mM Na+ ionic strength. Summed up: as §1

Turning to `COc1cccc2c1C(=O)c1c(O)c3c(c(O)c1C2=O)C[C@@](O)(C(C)=O)C[C@@H]3O[C@H]1C[C@H](NC(=O)CNC(=O)CN(C)C)[C@H](O)[C@H](C)O1`, the K in the test on Salmonidae [1] was determined as 2.83 s⁻¹; in the test on Salmonidae [2], 4.72 s⁻¹; in the test on Salmonidae [3], 3.09 s⁻¹; with Salmonidae [4], 5.92 s⁻¹; in the test on Salmonidae [5], 15.4 s⁻¹.

On to `CCCN(CCC)CC(=O)N[C@H]1C[C@H](O[C@H]2C[C@](O)(C(C)=O)Cc3c(O)c4c(c(O)c32)C(=O)c2c(OC)cccc2C4=O)O[C@@H](C)[C@H]1O`, for which the K is 5.14 s⁻¹ with Salmonidae [1]; 6.63 s⁻¹ in the test with Salmonidae [2]; 2.96 s⁻¹ in the test with Salmonidae [3]; 8.22 s⁻¹ in the test on Salmonidae [4]; 17 s⁻¹ with Salmonidae [5].

`COc1cccc2c1C(=O)c1c(O)c3c(c(O)c1C2=O)C[C@@](O)(C(C)=O)C[C@@H]3O[C@H]1C[C@H](NC(=O)CN(C)C)[C@H](O)[C@H](C)O1`: the K in the test with Salmonidae [1] turned out to be 2.32 s⁻¹; with Salmonidae [2] it was 3.51 s⁻¹; in the test on Salmonidae [3], 2.7 s⁻¹; in the test with Salmonidae [4], 4.8 s⁻¹; in the test with Salmonidae [5], 11.7 s⁻¹.
